The term EC50 denotes the concentration at which the effect is half-maximal. Broadly, the Ki is a measure of affinity in units of concentration, obtained from inhibition or displacement.

In experiment [1] the target is T1, human opioid receptor-like (ORL-1) (Homo sapiens (Human), UniProt P41146). Kind of experiment: ORL-1 receptor [35S]GTPγS functional binding assay. The settings on record: for EC50: read-out: GTP EC50 ORL-1, [35S]GTPγS, HEK-293 membranes; for GTP Emax ORL-1: maximal effect relative to nociceptin. Background: GTPγS is a poorly hydrolysed GTP analogue; its binding reports G protein activation.

For experiment [2], the target named is T1, human opioid receptor-like (ORL-1). Nature of the experiment: In vitro ORL-1 receptor binding assay ([3H]-nociceptin displacement). The conditions noted are these: read-out: Ki [Average ± Std Deviation] ORL-1; membranes from recombinant HEK-293 cells; 0.1 nM [3H]-nociceptin.
For experiment [3], the target named is T2, kappa opioid receptor (Homo sapiens (Human), UniProt P41145). Kind of experiment: κ-opioid receptor [35S]GTPγS functional assay. The settings on record: maximal effect relative to U69,593.
The target of experiment [4] is delta opioid receptor (Homo sapiens (Human), UniProt P41143). Kind of experiment: In vitro δ-opioid receptor binding assay ([3H]-Naltrindole displacement). The conditions noted are these: read-out: Ki [Average ± Std Deviation] Opioid Receptor δ; recombinant receptor expressed in CHO-K1 cells; 0.2 nM [3H]-Naltrindole.
The target of experiment [5] is μ-opioid receptor (Homo sapiens (Human), UniProt P35372). Kind of experiment: In vitro μ-opioid receptor binding assay ([3H]-diprenorphine displacement). The conditions noted are these: read-out: Ki [Average ± Std Deviation] Opioid Receptor μ; 0.2 nM [3H]-diprenorphine.
In experiment [6] the target is T2, kappa opioid receptor. Nature of the experiment: In vitro κ-opioid receptor binding assay ([3H]-U69,593 displacement). The conditions noted are these: read-out: Ki [Average ± Std Deviation] Opioid Receptor κ; membranes from recombinant HEK-293 cells; 0.4-0.8 nM [3H]-U69,593.

Take `O=c1[nH]c2ccccc2n([C@H]2C[C@H]3C=C[C@@H](C2)N3C2/C=C\CCCCC2)c1=O` (some centres unmarked) [listing 1 of 2 here]: the concentration giving a half-maximal response (EC50) in experiment [1] stood at 36 nM.
For `O=c1[nH]c2ccccc2n([C@@H]2C[C@H]3C=C[C@@H](C2)N3C2/C=C\CCCCC2)c1=O` (some centres unmarked) [listing 1 of 2 here], the Ki in experiment [2] was 56 nM; in experiment [4], 22800 nM; in experiment [5], 15800 nM; in experiment [6], 682 nM. Further, the “GTP Emax Opioid Receptor κ” value in experiment [3] is 22%. Moreover, in experiment [1], the “GTP Emax ORL-1” value was 82%.
For the compound `O=c1[nH]c2ccccc2n([C@@H]2C[C@H]3C=C[C@@H](C2)N3C2/C=C\CCCCC2)c1=O` (some centres unmarked) [listing 2 of 2 here], the EC50 in experiment [1] was 830 nM.
Turning to `O=c1[nH]c2ccccc2n([C@H]2C[C@H]3C=C[C@@H](C2)N3C2/C=C\CCCCC2)c1=O` (some centres unmarked) [listing 2 of 2 here], the Ki in experiment [2] was found to be 5.6 nM; in experiment [4], 23400 nM; in experiment [5], 1380 nM; in experiment [6] it was 119 nM. For the same compound, in experiment [3], the “GTP Emax Opioid Receptor κ” value was determined as 17%. Further, the “GTP Emax ORL-1” value in experiment [1] is 62%.

For the origin of these results see patent publication US8637502B2, “2,3,4,5-tetrahydro-benzo{B}{1,4}diazepine-comprising compounds of formula(III) for treating pain” (dated 2014).
